Reference: US9040707B2, “Bicyclic thiazoles as allosteric modulators of mGluR5 receptors” (Janssen Pharmaceutica NV, priority 2009, dated 2015)

By UniProt entry, the sequences of proteins in these tests, tags left out. Residues count along the entry.
UniProt P41594, 21-1180 isoform P41594-2 limits assumed: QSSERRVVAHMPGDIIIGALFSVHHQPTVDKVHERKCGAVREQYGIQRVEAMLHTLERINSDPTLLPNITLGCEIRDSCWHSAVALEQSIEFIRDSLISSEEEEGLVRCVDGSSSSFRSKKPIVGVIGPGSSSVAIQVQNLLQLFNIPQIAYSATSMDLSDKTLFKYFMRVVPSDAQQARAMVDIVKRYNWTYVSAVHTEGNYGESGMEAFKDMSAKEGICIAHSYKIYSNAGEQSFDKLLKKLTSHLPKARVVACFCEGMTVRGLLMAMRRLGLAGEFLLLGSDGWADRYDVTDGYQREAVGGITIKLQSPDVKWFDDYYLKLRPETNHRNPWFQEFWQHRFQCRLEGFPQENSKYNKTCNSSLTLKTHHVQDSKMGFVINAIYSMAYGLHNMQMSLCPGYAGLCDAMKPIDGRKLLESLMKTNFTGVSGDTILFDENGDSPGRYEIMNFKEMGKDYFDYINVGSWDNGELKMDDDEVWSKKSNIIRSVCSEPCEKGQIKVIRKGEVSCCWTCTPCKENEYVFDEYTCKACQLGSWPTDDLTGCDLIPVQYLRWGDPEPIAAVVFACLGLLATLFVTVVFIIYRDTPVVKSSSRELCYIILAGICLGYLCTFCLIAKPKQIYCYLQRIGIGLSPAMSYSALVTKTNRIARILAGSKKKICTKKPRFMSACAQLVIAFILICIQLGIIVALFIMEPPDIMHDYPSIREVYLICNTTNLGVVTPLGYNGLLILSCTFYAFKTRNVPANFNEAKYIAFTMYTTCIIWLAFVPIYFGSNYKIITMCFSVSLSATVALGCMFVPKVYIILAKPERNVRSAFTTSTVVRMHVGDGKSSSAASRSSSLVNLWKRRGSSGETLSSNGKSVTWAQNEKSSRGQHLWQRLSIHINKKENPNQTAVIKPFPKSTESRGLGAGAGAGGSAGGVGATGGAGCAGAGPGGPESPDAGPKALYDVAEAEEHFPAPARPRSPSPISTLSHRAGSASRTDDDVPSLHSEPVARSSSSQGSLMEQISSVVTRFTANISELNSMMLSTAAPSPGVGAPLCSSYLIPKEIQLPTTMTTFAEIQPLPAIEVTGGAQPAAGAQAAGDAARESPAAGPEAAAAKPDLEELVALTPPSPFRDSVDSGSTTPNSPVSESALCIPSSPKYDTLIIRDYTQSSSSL

Biological target: T1, human mGluR5a receptor (Homo sapiens, UniProt P41594)
T1 construct: host or cells: HEK293A (monoclones H10H and H12H)
Test: Functional Assay 2: Ca2+ mobilization, HEK cells with human mGluR5a receptor (H10H cell line)
Format: cell-based
Settings: HEK293
Description: Human mGluR5a cDNA in pCMV6-XL6 mammalian expression plasmid was purchased from OriGene Technologies, Inc. (catalogue number SC326357) and subcloned into pcDNA3.1(−). […] Monoclones were named for the species (“H” for human) plus the location on the plate (e.g. “10H”).
The following day, the growth medium was removed and the cells were washed with assay buffer containing 1× Hank's balanced salt solution (Invitrogen, Carlsbad, Calif.), 20 mM HEPES, 2.5 mM probenecid, pH 7.4 and left with 20 μL of this reagent. Following this step, the cells were loaded with calcium indicator dye, fluo-4 AM, to a final concentration of 2 μM and incubated for 40-45 min at 37° C. The dye solution was removed and replaced with assay buffer. Cell plates were held for 10-15 min at room temperature and were then loaded into the Functional Drug Screening System 6000 (FDSS 6000, Hamamatsu, Japan).
After establishment of a fluorescence baseline for about 3 seconds, the compounds of the present invention were added to the cells, and the response in cells was measured. 2.3 minutes later an EC20 concentration of the mGluR5 receptor agonist glutamate was added to the cells, and the response of the cells was measured for about 1.7 minutes. […] Calcium fluorescence measures were recorded as fold over basal fluorescence; raw data was then normalized to the maximal response to glutamate. […]

## CCN1CCc2nc(COc3ccccc3)sc2C1=O [Compound 56, 5-ethyl-6,7-dihydro-2-(phenoxymethyl)-thiazolo[5,4-c]pyridin-4(5H)-one]
  Emax: 75%
